# Patent US10983137B2, “Diagnosis of leukocyte-mediated disease and halogen gas exposure” (dated 2021)
# How the values were obtained:
# [1] = system: RAW 264.7 cells; assay: HDA-GSH production in RAW 264.7 cells treated with 2-ClHDA; settings: 10-50 μM 2-ClHDA, 8 hours, vs EtOH controls
# [2] = system: primary human neutrophils; assay: α-ClFALD and FALD-GSH in PMA-activated primary human neutrophils, with or without aminotriazole
# [3] = system: Eosinophils isolated from allergen-hypersensitive individuals; assay: FALD-GSH accumulation in PMA-stimulated eosinophils; settings: 200 nM PMA, 100 micromolar NaBr, 1 h
# [4] = 200 nM PMA treated neutrophils at 30 min, aminotriazole
molecule,measurement,setting,value
CCCCCCCCCCCCCCC(Cl)C=O (stereo not drawn),HDA-GSH levels,[1],elevated in a concentration dependent manor
aminotriazole,2-ClHDA and 2-ClODA levels,[2]; [4],greatly reduced
same,HDA-GSH and ODA-GSH levels,[2]; [4],significantly reduced
same,α-ClFAlD production,"[2]; primary human neutrophils, addition of aminotriazole",abolished
phorbol-12-myristate 13-acetate,HDA-GSH and ODA-GSH production,[3],eosinophil peroxidase-dependent production of HDA-GSH and ODA-GSH
same,time course of α-ClFAlD (2-ClHDA and 2-ClODA) production,[2]; 200 nM PMA stimulated neutrophils,"elevated by 5 min, peak by 30 min and begin to decline by 60 min"
